In US8673947B2, “Enhanced migraine treatments based on ghrelin mimetics” (Helsinn Therapeutics (U.S.), Inc., priority 2009, dated 2014):

Assay: Pharmacokinetic two period crossover study of oral sumatriptan with or without anamorelin hydrochloride
Type: in vivo, human
Details: plasma sumatriptan; sumatriptan succinate 25 mg oral tablet, alone or with anamorelin HCl 100 mg oral; fasted healthy subjects, N = 22; sampling to 4 hours postdose
Method: The study was a two period crossover study in 22 healthy, normal men and women ages 18-45 years, conducted in open label format. Sumatriptan was administered as one oral tablet; anamorelin was administered as 4 25 mg oral capsules; and all medication was given with 200 mL of water. Subjects were fasted overnight with a seven day wash out period between periods. […] All samples were analyzed using a validated bioanalytical method (LC-MS-MS).

AUC last, Median: 45.44 ng·h/mL
Structure (SMILES): CNS(=O)(=O)Cc1ccc2[nH]cc(CCN(C)C)c2c1 [Sumatriptan, 1-[3-(2-dimethylaminoethyl)-1H-indol-5-yl]-N-methyl-methanesulfonamide]
